Assay results published in ChEMBL document CHEMBL5543069, “DW71177: A novel [1,2,4]triazolo[4,3-a]quinoxaline-based potent and BD1-Selective BET inhibitor for the treatment of acute myeloid leukemia” (Eur J Med Chem, 2024).

By UniProt entry, the sequences of proteins in these tests, tags left out.
UniProt P27361, whole entry, looked up: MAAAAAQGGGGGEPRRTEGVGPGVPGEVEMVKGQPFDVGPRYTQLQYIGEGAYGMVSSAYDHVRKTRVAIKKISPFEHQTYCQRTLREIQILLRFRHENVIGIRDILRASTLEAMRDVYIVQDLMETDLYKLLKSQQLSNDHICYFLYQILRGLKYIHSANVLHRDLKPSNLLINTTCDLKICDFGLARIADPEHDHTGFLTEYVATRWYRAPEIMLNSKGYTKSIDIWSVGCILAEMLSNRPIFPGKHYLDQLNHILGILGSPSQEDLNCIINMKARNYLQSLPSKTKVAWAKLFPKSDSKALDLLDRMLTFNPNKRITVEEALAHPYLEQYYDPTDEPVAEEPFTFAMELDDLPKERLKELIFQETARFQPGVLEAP
UniProt P28482, whole entry, looked up: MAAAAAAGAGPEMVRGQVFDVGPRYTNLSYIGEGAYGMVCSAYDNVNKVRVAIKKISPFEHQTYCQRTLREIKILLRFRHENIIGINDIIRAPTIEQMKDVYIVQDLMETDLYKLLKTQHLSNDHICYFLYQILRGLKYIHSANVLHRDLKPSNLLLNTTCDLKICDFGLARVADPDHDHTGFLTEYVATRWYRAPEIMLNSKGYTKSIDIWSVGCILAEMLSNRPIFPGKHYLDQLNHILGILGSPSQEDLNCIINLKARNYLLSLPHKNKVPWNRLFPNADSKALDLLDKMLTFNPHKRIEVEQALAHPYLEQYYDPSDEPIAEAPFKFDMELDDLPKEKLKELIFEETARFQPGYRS

Key:
[1] = Toxicity in Sprague-Dawley rat xenografted with human MV4-11 cells at 120 mg/kg, po administered daily for 21 days; assay type: organism-based; conditions: in vivo, 504 h, time 21 day
[2] = biological target: Mitogen-activated protein kinase; ERK1/ERK2 (Homo sapiens) (UniProt P27361+P28482); test: Inhibition of ERK1/2 phosphorylation in human MV4-11 cells at 0.1 to 1 uM incubated for 24 hrs by Western blot analysis; assay type: cell-based; conditions: dose 0.1-1 µM

inhibition [2]: Active
SMILES: COc1ccc2c(c1)nc(NCCCCNC(=O)CC(C)C)c1nnc(C)n12
Activity [1]: Non-Toxic

The source made the active and inactive calls. The calls are words filed in the database; no cut-off is given here.
